Experimental findings from US7687508B2, “Cyclic derivatives as modulators of chemokine receptor activity” (Bristol-Myers Squibb Company, priority 2006, dated 2010) are described below.

The data set in a line: Single-dose pharmacokinetics in rats. It counts as in vivo, Sprague-Dawley rats. The settings on record: rat, dose per compound (mg/kg), tested form: TFA.

On to `CC(C)N(C)[C@@H]1CC[C@H](N2CC[C@H](NC(=O)c3cccc(C(F)(F)F)c3)C2=O)[C@H](CS(C)(=O)=O)C1`, for which the “Oral AUC” value was 0.69 µM·h.
